From patent publication US12091425B2 (AMGEN INC., priority 2016, dated 2024) come the findings set out here.

Protein sequences, listed by entry. Tags and fused reporters are not part of them. Residues count along the entry.
UniProt Q07820, 171-327 limits assumed: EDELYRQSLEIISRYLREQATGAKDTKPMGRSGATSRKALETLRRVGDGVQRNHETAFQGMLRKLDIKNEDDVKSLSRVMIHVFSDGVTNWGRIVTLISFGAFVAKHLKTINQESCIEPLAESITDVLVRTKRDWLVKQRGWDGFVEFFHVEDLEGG

Read-outs that look alike come from different tables or passages of the source.

In assay [1] the target is Mcl-1/Bim interaction, recombinant human Mcl-1 (171-327) (Homo sapiens, UniProt Q07820). The experiment in a line: Cell free Mcl-1: Bim Affinity Assay (Mcl-1 HTRF). It counts as binding. Particulars: read-out: Mcl-1 HTRF.
Assay [2] relates to OPM-2 human multiple myeloma cell line. The experiment in a line: Cell Viability Assay (OPM-2 10 FBS). Type of assay: cell-based.
Where [3] appears, read: cell free Mcl-1:Bim TR-FRET, recombinant human Mcl-1 (171-327).
Where [4] appears, read: read-out: OPM-2 10% FBS, OPM-2 cells, 16 h, CellTiter-Glo.
Where [5] appears, read: TR-FRET, 0.1 nM Mcl-1 (171-327), 0.05 nM biotin-Bim (51-76).
The mark [6] stands for this setting: read-out: OPM-2 10% FBS, OPM-2 cells, 16 h incubation, CellTiter-Glo.

Regarding `CC1/C=C\C[C@H](O)[C@@H]2CC[C@H]2CN2C[C@@]3(CCCc4cc(Cl)ccc43)COc3ccc(cc32)C(=O)NS(=O)(=O)C1CC1CC1` (stereo partly shown), the IC50 in assay [1] (setting [3]) stood at 3.71 nM; in assay [2] (setting [4]) it was 2250 nM.

`CCC1C(OC)C/C=C/[C@H](OCCN2CCOCC2)[C@@H]2CC[C@H]2CN2C[C@@]3(CCCc4cc(Cl)ccc43)COc3ccc(cc32)C(=O)NS1(=O)=O` (stereo partly shown): the IC50 was 0.47 nM in assay [1] (setting [5]) and 56.4 nM in assay [2] (setting [4]).

On to `COCCOCCC1C(C)C/C=C\[C@H](O)[C@@H]2CC[C@H]2CN2C[C@@]3(CCCc4cc(Cl)ccc43)COc3ccc(cc32)C(=O)NS1(=O)=O` (stereo partly shown), for which the IC50 is 0.0856 nM in assay [1] (setting [5]) and 99.6 nM in assay [2] (setting [4]).

For `CO[C@H]1/C=C/CCC(C(O)c2nccs2)S(=O)(=O)NC(=O)c2ccc3c(c2)N(C[C@@H]2CC[C@H]21)C[C@@]1(CCCc2cc(Cl)ccc21)CO3` (stereo partly shown), the figures for the IC50 in assay [1] (setting [3]) and in assay [2] (setting [4]) were 7.67 nM and 13400 nM, respectively.

In the case of `C[C@@H]1[C@@H](C)CC(CC(=O)O)/C=C/[C@@H]2CC[C@H]2CN2C[C@@]3(CCCc4cc(Cl)ccc43)COc3ccc(cc32)C(=O)NS1(=O)=O` (stereo partly shown), the IC50 in assay [1] (setting [5]) is 0.0514 nM; in assay [2] (setting [4]), 3340 nM.

Turning to `C[C@@H]1[C@@H](C)CC(CC(=O)O)CC[C@@H]2CC[C@H]2CN2C[C@@]3(CCCc4cc(Cl)ccc43)COc3ccc(cc32)C(=O)NS1(=O)=O` (stereo partly shown), the IC50 in assay [1] (setting [5]) amounted to 0.103 nM; in assay [2] (setting [4]), 2280 nM.

With `C[C@H]1CC=C[C@H](OCCN2CCOCC2)[C@@H]2CC[C@H]2CN2C[C@@]3(CCCc4cc(Cl)ccc43)COc3ccc(cc32)C(=O)NS(=O)(=O)C1CC(F)(F)F` (stereo partly shown), the results for the IC50 in assay [1] (setting [3]) and in assay [2] (setting [4]) were 1.37 nM and 237 nM, respectively.

As to `CC1/C=C/C(O)[C@@H]2CC[C@H]2CN2C[C@@]3(CCCc4cc(Cl)ccc43)COc3ccc(cc32)C(=O)NS(=O)(=O)CC1(C)C` (single isomer, unassigned), the IC50 was determined as 0.983 nM in assay [1] (setting [3]) and 660 nM in assay [2] (setting [4]).

Take `CC1/C=C/[C@@H](O)[C@@H]2CC[C@H]2CN2C[C@@]3(CCCc4cc(Cl)ccc43)COc3ccc(cc32)C(=O)NS(=O)(=O)[C@H](C)[C@H]1C` (single isomer, unassigned): the figures for the IC50 in assay [1] (setting [5]) and in assay [2] (setting [6]) were 1.68 nM and 1500 nM, respectively.

Turning to `CC1/C=C/[C@H](O)[C@@H]2CC[C@H]2CN2C[C@@]3(CCCc4cc(Cl)ccc43)COc3ccc(cc32)C(=O)NS(=O)(=O)C(C(C)C)C1` (single isomer, unassigned), the results for the IC50 in assay [1] (setting [3]) and in assay [2] (setting [4]) were 0.718 nM and 1540 nM, respectively.

On to `CC12C/C=C/[C@H](O)[C@@H]3CC[C@H]3CN3C[C@@]4(CCCc5cc(Cl)ccc54)COc4ccc(cc43)C(=O)NS(=O)(=O)C1CCC2` (single isomer, unassigned), for which the figures for the IC50 in assay [1] (setting [5]) and in assay [2] (setting [4]) were 7.07 nM and 5730 nM, respectively.

Regarding `CC1C/C=C/[C@H](O)[C@@H]2CC[C@H]2CN2C[C@@]3(CCCc4cc(Cl)ccc43)COc3ccc(cc32)C(=O)NS(=O)(=O)C1Cc1ccccc1` (single isomer, unassigned), the IC50 worked out at 13.8 nM in assay [1] (setting [3]) and 6630 nM in assay [2] (setting [4]).

`CC1C/C=C/[C@H](O)[C@@H]2CC[C@H]2CN2C[C@@]3(CCCc4cc(Cl)ccc43)COc3ccc(cc32)C(=O)NS(=O)(=O)C1Cc1ccsc1` (single isomer, unassigned): the IC50 stood at 29.1 nM in assay [1] (setting [3]) and 4740 nM in assay [2] (setting [4]).

For `CCC1C(C)C(C)/C=C/[C@H](O)[C@@H]2CC[C@H]2CN2C[C@@]3(CCCc4cc(Cl)ccc43)COc3ccc(cc32)C(=O)NS1(=O)=O` (single isomer, unassigned), the figures for the IC50 in assay [1] (setting [5]) and in assay [2] (setting [6]) were 4.54 nM and 5250 nM, respectively.

With `CCC1C(OC)C/C=C/[C@H](O)[C@@H]2CC[C@H]2CN2C[C@@]3(CCCc4cc(Cl)ccc43)COc3ccc(cc32)C(=O)NS1(=O)=O` (single isomer, unassigned), the IC50 was found to be 0.201 nM in assay [1] (setting [5]) and 122 nM in assay [2] (setting [4]).

Regarding `CCC1C(OC)C/C=C/[C@H](OC)[C@@H]2CC[C@H]2CN2C[C@@]3(CCCc4cc(Cl)ccc43)COc3ccc(cc32)C(=O)NS1(=O)=O` (single isomer, unassigned), the values for the IC50 in assay [1] (setting [5]) and in assay [2] (setting [4]) were 0.522 nM and 264 nM, respectively.

`COC1/C=C/C(C)C(C)CS(=O)(=O)NC(=O)c2ccc3c(c2)N(C[C@@H]2CC[C@@H]12)C[C@@]1(CCCc2cc(Cl)ccc21)CO3` (single isomer, unassigned): the IC50 in assay [1] (setting [5]) was found to be 0.363 nM; in assay [2] (setting [6]), 157 nM.

In the case of `COC1C/C=C/[C@H](O)[C@@H]2CC[C@H]2CN2C[C@@]3(CCCc4cc(Cl)ccc43)COc3ccc(cc32)C(=O)NS(=O)(=O)C1C` (single isomer, unassigned), the IC50 worked out at 0.22 nM in assay [1] (setting [5]) and 338 nM in assay [2] (setting [4]).

On to `COC1C/C=C/[C@H](O)[C@@H]2CC[C@H]2CN2C[C@@]3(CCCc4cc(Cl)ccc43)COc3ccc(cc32)C(=O)NS(=O)(=O)C1CC(C)C` (single isomer, unassigned), for which the IC50 stood at 11.4 nM in assay [1] (setting [3]) and 4260 nM in assay [2] (setting [4]).

As to `COC1C/C=C/[C@H](O)[C@@H]2CC[C@H]2CN2C[C@@]3(CCCc4cc(Cl)ccc43)COc3ccc(cc32)C(=O)NS(=O)(=O)C1CC1CCCO1` (single isomer, unassigned), the figures for the IC50 in assay [1] (setting [3]) and in assay [2] (setting [4]) were 0.171 nM and 107 nM, respectively.

In the case of `COC1C2=CCC(CC2)CS(=O)(=O)NC(=O)c2ccc3c(c2)N(C[C@@H]2CC[C@@H]12)C[C@@]1(CCCc2cc(Cl)ccc21)CO3` (single isomer, unassigned), the IC50 in assay [1] (setting [5]) came to 20.2 nM; in assay [2] (setting [4]) it was 15200 nM.

`COCC1[C@@H](C)CC=C[C@H](O)[C@@H]2CC[C@H]2CN2C[C@@]3(CCCc4cc(Cl)ccc43)COc3ccc(cc32)C(=O)NS1(=O)=O` (single isomer, unassigned): the IC50 was 0.54 nM in assay [1] (setting [5]) and 701 nM in assay [2] (setting [4]).

Turning to `COCCC1CC(C)/C=C/[C@H](OC)[C@@H]2CC[C@H]2CN2C[C@@]3(CCCc4cc(Cl)ccc43)COc3ccc(cc32)C(=O)NS1(=O)=O` (single isomer, unassigned), the results for the IC50 in assay [1] (setting [3]) and in assay [2] (setting [4]) were 11.7 nM and 15300 nM, respectively.

For `COCCO[C@H]1/C=C/CC(C)C(CC2CC2)S(=O)(=O)NC(=O)c2ccc3c(c2)N(C[C@@H]2CC[C@H]21)C[C@@]1(CCCc2cc(Cl)ccc21)CO3` (single isomer, unassigned), the IC50 amounted to 1.05 nM in assay [1] (setting [5]) and 484 nM in assay [2] (setting [4]).

Turning to `COC[C@@H]1CC(C)CC[C@H](O)[C@@H]2CC[C@H]2CN2C[C@@]3(CCCc4cc(Cl)ccc43)COc3ccc(cc32)C(=O)NS1(=O)=O` (single isomer, unassigned), the IC50 came out at 1.18 nM in assay [1] (setting [5]) and 2200 nM in assay [2] (setting [6]).

Consider `CO[C@H]1/C=C/CCC(C(=O)N2CCN(S(=O)(=O)N(C)C)CC2)S(=O)(=O)NC(=O)c2ccc3c(c2)N(C[C@@H]2CC[C@H]21)C[C@@]1(CCCc2cc(Cl)ccc21)CO3` (single isomer, unassigned), for which the IC50 in assay [1] (setting [5]) was found to be 0.716 nM; in assay [2] (setting [4]), 773 nM.

On to `C[C@@H]1[C@@H](C)CC(N(C)CC(=O)O)CC(O)[C@@H]2CC[C@H]2CN2C[C@@]3(CCCc4cc(Cl)ccc43)COc3ccc(cc32)C(=O)NS1(=O)=O` (single isomer, unassigned), for which the values for the IC50 in assay [1] (setting [5]) and in assay [2] (setting [4]) were 0.224 nM and 280 nM, respectively.

Regarding `O=C1NS(=O)(=O)C2COCC2C/C=C/[C@@H](O)[C@@H]2CC[C@H]2CN2C[C@@]3(CCCc4cc(Cl)ccc43)COc3ccc1cc32` (single isomer, unassigned), the IC50 came out at 14.1 nM in assay [1] (setting [5]) and 24500 nM in assay [2] (setting [6]).

For the compound `O=C1NS(=O)(=O)CC(c2ccccc2)C/C=C/[C@H](O)[C@@H]2CC[C@H]2CN2C[C@@]3(CCCc4cc(Cl)ccc43)COc3ccc1cc32` (single isomer, unassigned), the figures for the IC50 in assay [1] (setting [3]) and in assay [2] (setting [4]) were 5.09 nM and 2060 nM, respectively.
